Test: Partition coefficient (log P) in octan-1-ol/phosphate buffer pH 7.4
Details: octan-1-ol/phosphate buffer pH 7.4, 25 °C
Procedure: The hydrophobicity of the prepared compounds was determined by the measurement of partition coefficient P in a mixture of two immiscible phases—octan-1-ol and 6.6 mM phosphate buffer pH 7.4 to simulate physiological conditions. Before the use, octan-1-ol was stirred with the buffer for 16 h at 25 °C to achieve saturation of both phases, which were then separated.
Then, 150 µL of the stock solutions were mixed with 150 µL of the respective immiscible phase in microcentrifuge tubes (1.5 mL) and stirred (750 rpm) for 2 h at 25 °C in triplicates. Phases were separated and the solute concentration in each phase was determined in 96-well microtitration plates using Sunrise™ spectrophotometer (Schoeller Instruments, Prague, Czech Republic) at 400 nm. Log P was calculated as follows: log Poct/buffer = log([A]octan-1-ol/[A]buffer).

C[C@@H]1O[C@@H](OC[C@H]2O[C@@H](Oc3c(-c4ccc(O)c(O)c4)oc4cc(O)cc(O)c4c3=O)[C@H](O)[C@@H](O)[C@@H]2O)[C@H](O)[C@H](O)[C@H]1O [Rutin, quercetin-3-O-[α-L-rhamnopyranosyl-(1→6)-β-D-glucopyranose], reference compound]
log P: −0.39

Reference: article PMC4926433, “Isoquercitrin Esters with Mono- or Dicarboxylic Acids: Enzymatic Preparation and Properties” (International Journal of Molecular Sciences, 2016)
